Measured values taken from patent US9556152B2, “Heterocyclic amides as kinase inhibitors” (GlaxoSmithKline Intellectual Property Development Limited, priority 2013, dated 2017).

Tests used:
[1] = tested on: mouse TNF and zVAD induced temperature loss in mice; test: TNF/zVAD-driven systemic inflammatory response syndrome model (short modality), temperature loss; type: in vivo; conditions: oral pre-dose 30 mg/kg 15 minutes before i.v. mouse TNF and zVAD
Protocol: (§1) TNF (or TNF/zVAD) induced manifestations include temperature loss, the production of numerous cytokines (including IL-6, IL-1b, MIP1β and MIP2) in the periphery, liver and intestinal inflammation and an increase of markers of cellular (LDH and CK) and liver damage (AST and ALT) in the serum.
Each test compound is run through the TNF/zVAD and TNF (alone) versions of the model. For example, mice (7 mice per group) were orally pre-dosed with vehicle or test compound at 50 mg/kg 15 minutes before i.v. administration of mouse TNF (30 m/mouse) and zVAD (0.4 mg/mouse) simultaneously. Temperature loss in the mice was measured by rectal probe. The study was terminated when the control group lost 7 degrees, per our IACUC protocol. […] All data are shown as means±standard error of the mean.

[2] = tested on: mouse TNF induced temperature loss in mice; test: TNF (alone)-driven systemic inflammatory response syndrome model (long modality), temperature loss; type: in vivo; conditions: oral pre-dose 50 mg/kg 15 minutes before i.v. mouse TNF
Protocol: as §1
In addition to the TNF/zVAD model, each compound is also tested in a TNF alone model. For the TNF (alone) version of the model, mice (7 mice per group) were orally pre-dosed with vehicle or test compound at 50 mg/kg 15 minutes before i.v. administration of mouse TNF (30 m/mouse). […] All data are shown as means±standard error of the mean.

## CN1C(=O)[C@@H](NC(=O)c2nnc(Cc3ccccc3)[nH]2)COc2ccccc21 [Example 12, (S)-5-benzyl-N-(5-methyl-4-oxo-2,3,4,5-tetrahydrobenzo[b][1,4]oxazepin-3-yl)-4H-1,2,4-triazole-3-carboxamide]
[1]
  % Inhibition: 93%
[2]
  % Inhibition: 87%
